Assay results: PubChem BioAssay AID2445 (The Scripps Research Institute Molecular Screening Center, 2010)
Only a part is listed here, and it is no random draw. Active and inactive are the calls of the source.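 Rule for the calls: active = activation above that plate's cutoff, the mean activation of tested compounds plus 3 SD (cut at about 6.6% in these data, passing the limit was not always enough); inactive = the rest.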

By UniProt entry, the sequences of proteins in these tests, tags left out.
UniProt P30559, whole entry: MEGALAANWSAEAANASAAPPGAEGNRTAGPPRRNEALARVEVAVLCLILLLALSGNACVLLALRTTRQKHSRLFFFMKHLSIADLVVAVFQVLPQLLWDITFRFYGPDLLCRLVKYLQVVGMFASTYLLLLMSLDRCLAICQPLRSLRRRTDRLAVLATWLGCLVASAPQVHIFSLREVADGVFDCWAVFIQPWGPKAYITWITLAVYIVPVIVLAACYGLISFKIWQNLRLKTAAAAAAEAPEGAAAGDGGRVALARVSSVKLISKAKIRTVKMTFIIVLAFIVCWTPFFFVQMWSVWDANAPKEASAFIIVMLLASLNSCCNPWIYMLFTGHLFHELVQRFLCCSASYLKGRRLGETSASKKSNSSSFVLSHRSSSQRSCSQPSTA

Target: Oxytocin receptor (Homo sapiens) (UniProt P30559)
Assay: human OXTR potentiators, primary screen, fluorescence, CHO-OTR cells, Fluo-8 calcium (AID 2445);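 note: 100% uses oxytocin at 75 nM as the full agonist control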
Settings: Fluo-8 calcium fluorescence, potentiator mode, at 3 µM, hits give high values, 0% = oxytocin EC15, 100% = EC100

Compound | activation
CCC(=O)N(c1ccccc1)C1(COC)CCN(CCc2cccs2)CC1 | inactive: -4.41%
CCC(=O)N(c1ccccc1)C1(COC)CCN(CCn2nnn(CC)c2=O)CC1 | inactive: -3.53%
